Experimental data reported in ChEMBL document CHEMBL1141614, “Selective COX-2 inhibitors. Part 2: synthesis and biological evaluation of 4-benzylideneamino- and 4-phenyliminomethyl-benzenesulfonamides” (Bioorg Med Chem, 2008).
pIC50: −log10 of the molar value.

Protein sequences, listed by entry. Tags and fused reporters are not part of them.
UniProt P23219, whole entry: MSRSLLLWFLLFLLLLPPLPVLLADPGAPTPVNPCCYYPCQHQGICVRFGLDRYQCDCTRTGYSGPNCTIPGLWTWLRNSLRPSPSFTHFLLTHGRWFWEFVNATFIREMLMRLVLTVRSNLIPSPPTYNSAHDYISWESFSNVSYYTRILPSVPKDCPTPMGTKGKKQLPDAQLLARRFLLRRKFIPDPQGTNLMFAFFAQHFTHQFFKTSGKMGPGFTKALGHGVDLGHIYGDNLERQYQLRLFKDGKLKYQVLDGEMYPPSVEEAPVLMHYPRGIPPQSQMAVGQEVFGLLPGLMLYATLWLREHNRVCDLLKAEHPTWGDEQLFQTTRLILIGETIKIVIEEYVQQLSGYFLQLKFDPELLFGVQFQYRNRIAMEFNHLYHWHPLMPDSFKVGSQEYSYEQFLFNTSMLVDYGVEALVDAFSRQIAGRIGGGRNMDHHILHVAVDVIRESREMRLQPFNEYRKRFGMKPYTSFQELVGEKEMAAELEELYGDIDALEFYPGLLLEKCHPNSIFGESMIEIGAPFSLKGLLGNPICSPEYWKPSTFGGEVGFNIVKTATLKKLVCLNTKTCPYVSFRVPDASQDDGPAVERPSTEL

Biological target: Prostaglandin G/H synthase 1 (Homo sapiens, UniProt P23219)
Assay type: tissue-based, Blood

pIC50: 5.39
SMILES: Oc1ccc(/C=C/c2cc(O)cc(O)c2)cc1 [RESVERATROL]
